Source: PubChem BioAssay (ICCB-Longwood Screening Facility, Harvard Medical School)
Rows were chosen to be rich in hits. Some 0.46% of all compounds tested hit in one or more screens of this group.
HCMV NEC inh = cytomegalovirus nuclear egress complex inhibition; inhibition, % (concentration not given with the values); actives 0.15% (n = 190,000); HTRF UL50-UL53 interaction, normalized percent inhibition; in the data active = inhibition above about 27%, passing the limit was not always enough
GIV-Gai inh = GIV-Galpha-i interaction inhibition. AID 1224905. actives 0.42% (n = 210,000). percent of control (FP), % (test concentration not listed). Galpha-i3/FITC-GIV peptide fluorescence polarization, 90 min; stronger effect = lower value; scaled: aluminum fluoride 0%, vehicle 100%;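 active = replicate mean at 85% of control or lower, very high polarization wells dropped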;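 also: wells of about 15 µL received 100 nL stock; the first replicate is given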
* = called active by the depositor; · = no result; ! = not confirmed by another sample.

entry	SMILES	HCMV NEC inh	GIV-Gai inh
1	COc1ccc(CCN2C(=O)/C(=C/c3c(NCc4ccccc4)nc4ccccn4c3=O)SC2=S)cc1OC	·	139
2	CN(C)CCN(C)Cc1cc(C(C)(C)C)c(O)c(C(C)(C)C)c1	-8	97
3	CCOC(=O)C1CCN(CC(O)COc2ccc3ccccc3c2)CC1 (stereo unspecified)	-30	107
4	O=C(Nc1cnc(N2CCN(c3ccccc3F)CC2)c(C(=O)O)c1)c1ccccc1	·	107
5	CN(C)c1ccc(/C=C(\C#N)c2nc3ccccc3c(=O)[nH]2)cc1	-43	254
6	CN(C)c1ccc(/C=C(/C#N)c2ccc(C#N)cc2)cc1	-10	11*
7	CN(C)c1ccc(/C=C(\C#N)C(N)=O)cc1	-118	·
8	CN(C)c1ccc(/C=C(\C#N)C(N)=C(C#N)C#N)cc1	·	-24*
9	Cc1ccc(C)c(-c2nnc(NC(=O)c3ccccc3S(C)(=O)=O)o2)c1	-30	100
10	O=C(O)C(=Cc1ccc(-c2cccc(Cl)c2)o1)C(=O)O	-36	·

The list goes on, starting with the last 2 of the part before.
entry	SMILES	HCMV NEC inh	GIV-Gai inh
9	Cc1ccc(C)c(-c2nnc(NC(=O)c3ccccc3S(C)(=O)=O)o2)c1	-30	100
10	O=C(O)C(=Cc1ccc(-c2cccc(Cl)c2)o1)C(=O)O	-36	·
11	CCN(C(=O)c1cnccc1C(F)(F)F)c1ccc(Cl)cc1	1	106
12	COc1ccc(CCNC(C#N)c2ccco2)cc1OC (stereo unspecified)	-18	100
13	COc1cc(/C=C(\C#N)C(=O)C(C)(C)C)ccc1O	-73	·
14	COc1cc(/C=C(\C#N)C(=O)c2ccc(O)c(O)c2)cc(I)c1O	-122	-31*
15	CNC(=O)/C=C/c1ccc(S(=O)(=O)N2CCOCC2)cc1	-76	·
16	COc1ccccc1NC(=O)NCc1c(-n2cccc2)sc2c1CCN(C)C2	-4	100
17	CN/N=C/c1c(O)ccc2ccccc12	49*	·
18	CC(C(=O)Nc1cccc(N=Cc2c(O)ccc3ccccc23)c1)c1ccccc1 (stereo unspecified)	-7	·
19	O=CN/N=C/c1c(O)ccc2ccccc12	-17	·
20	Oc1ccc2ccccc2c1C=NCc1ccccc1	60*	103

The listing continues:
entry	SMILES	HCMV NEC inh	GIV-Gai inh
21	CC(NC(=O)c1ccccc1N=Cc1c(O)ccc2ccccc12)c1ccccc1 (stereo unspecified)	68*!	·
22	O=c1oc2ccccc2c(O)c1/C=N/c1ncccn1	-18	·
23	Oc1ccc2ccccc2c1/C=N/c1ncccn1	99*	·
24	O/N=C/c1c(O)ccc2ccccc12	-23	98
25	CCC(=O)N1c2ccc(C)cc2C2=C(SC(C(=O)OC)=C(C(=O)OC)C23SC(C(=O)OC)=C(C(=O)OC)S3)C1(C)C	·	105
26	Cc1ccc(S(=O)(=O)NCc2nc(N)n(S(=O)(=O)c3ccc(C)cc3C)n2)c(C)c1	7	107
27	O=C(CN1C(=O)/C(=C/c2ccccc2)SC1=S)Nc1ccccc1	-17	·
28	CCN(Cc1nc(-c2cccc(Br)c2)no1)C(C)C(=O)Nc1ccc(C)cc1 (stereo unspecified)	2	·
29	O=S(=O)(/N=C\c1cc(Br)ccc1O)c1cccs1	3	·
30	O=S(=O)(/N=C/c1c(O)ccc2ccccc12)c1cccs1	98*	·

Next records.
entry	SMILES	HCMV NEC inh	GIV-Gai inh
31	Cc1nn(Cc2noc(-c3ccc(Br)cc3)n2)c(C)c1S(=O)(=O)N1CCCC1	-11	107
32	CCCCOc1ccc(C2CC(=O)Nc3c2c(C)nn3-c2ccc3nnc(C)n3n2)cc1OCC (stereo unspecified)	·	75*
33	CCCOc1ccc(C2CC(=O)Nc3c2c(C)nn3-c2ccc3nnc(C)n3n2)cc1OCC (stereo unspecified)	·	105
34	CSc1nc(Nc2cccc(C)c2)c(C#N)c(-c2ccccc2)n1	48*	102
35	COc1ccc(Nc2nc(SC)nc(-c3ccccc3)c2C#N)cc1OC	-13	99
36	CCOC(=O)C1CCCN(C(=O)c2sc3ncnc(N4CCN(c5ccc(OC)cc5)CC4)c3c2C)C1 (stereo unspecified)	-18	103
37	O=C(Oc1ccccc1OC(=O)c1ccccc1)c1ccccc1	·	100
38	O=C(Oc1cccc2c1C(=O)C=CC2=O)c1ccccc1	65*	104
39	O=C1CCCCC1Oc1cc(O)c2c(=O)cc(-c3ccccc3)oc2c1 (stereo unspecified)	-16	99
40	O=c1[nH]nc(SCc2ccccc2)c(=O)[nH]1	-21	99

Carrying on.
entry	SMILES	HCMV NEC inh	GIV-Gai inh
41	O=c1[nH]nc(SCc2cccc3ccccc23)c(=O)[nH]1	-1	85*
42	O=c1cc(-c2ccccc2)nc(-c2ccccc2)o1	-5	101
43	CN(C)c1ccc(-c2nc(-c3cccc(I)c3)cc(=O)o2)cc1	·	-18*
44	Cc1n[nH]c(C)c1S(=O)(=O)Nc1ccc(Br)cc1F	4	·
45	CCOC(=O)C1=C(C)N=c2s/c(=C\c3ccc(O)c(Br)c3)c(=O)n2C1c1ccc(OC)cc1 (stereo unspecified)	-10	186
46	CCOC(=O)C1=C(C)N=c2s/c(=C\c3ccc(O)c(Br)c3)c(=O)n2C1c1ccc(OC)c(OC)c1 (stereo unspecified)	-12	71*
47	CCCCN1/C(=C/C=C/c2n(CCCC)c3cc(Cl)c(Cl)cc3[n+]2C)N(C)c2cc(Cl)c(Cl)cc21	·	37*
48	CC(=O)OCCN1C(=C/C=C/c2n(CCOC(C)=O)c3cc(Cl)c(Cl)cc3[n+]2CCOC(C)=O)N(CCOC(C)=O)c2cc(Cl)c(Cl)cc21	·	282
49	CCCCCN1/C(=C\C=C\c2n(CC)c3cc(Cl)c(Cl)cc3[n+]2CCCCC)N(CC)c2cc(Cl)c(Cl)cc21	·	-62*
50	C=CCn1c(/C=C/C=C2N(CC)c3cc(Cl)c(Cl)cc3N2CC)[n+](CCCS(=O)(=O)[O-])c2cc(Cl)c(Cl)cc21	·	169

Record cards (already shown).
Record of C=CCn1c(/C=C/C=C2N(CC)c3cc(Cl)c(Cl)cc3N2CC)[n+](CCCS(=O)(=O)[O-])c2cc(Cl)c(Cl)cc21 = HCMV NEC inh = ·; GIV-Gai inh = 169
Record of Cc1n[nH]c(C)c1S(=O)(=O)Nc1ccc(Br)cc1F = HCMV NEC inh = 4; GIV-Gai inh = ·
Record of CC(=O)OCCN1C(=C/C=C/c2n(CCOC(C)=O)c3cc(Cl)c(Cl)cc3[n+]2CCOC(C)=O)N(CCOC(C)=O)c2cc(Cl)c(Cl)cc21 = HCMV NEC inh = ·; GIV-Gai inh = 282

Next section.
entry	SMILES	HCMV NEC inh	GIV-Gai inh
51	Cc1cc2c3c([nH]c2cc1S(=O)(=O)NCCN1CCc2ccccc2C1)CC(C)(C)CC3=O	-26	102
52	CCOC(=O)C1CCN(C(=O)c2ccc(OCC)cc2)CC1	10	101
53	CC(C)NC(=O)CC1CCN(S(=O)(=O)c2ccc(Br)s2)CC1	·	107
54	CC(C)(C)C(=O)[C@@H]1[C@@H](c2cccs2)C(C#N)(C#N)[C@H]2C=Cc3ccccc3N12	·	-45*
55	CC(C)(C)C(=O)[C@@H]1[C@@H](c2ccsc2)C(C#N)(C#N)[C@H]2C=Cc3ccccc3N12	·	123
56	Cc1ccc(C(=O)OC2=CC(=O)c3ccccc3C2=O)cc1	36	84*
57	Cc1ccc(C(=O)OC2=C(c3ccccc3)C(=O)c3ccccc3C2=O)cc1	·	102
58	Nc1c(C(=O)Nc2ccc(F)c(F)c2)sc2nc(-c3ccncc3)ccc12	2	124
59	Cc1ccc(NC(=O)c2sc3nc(-c4ccncc4)ccc3c2N)cc1	2	-53*
60	CCOc1ccc(NC(=O)c2sc3nc4c(c(-c5ccco5)c3c2N)CCCC4)cc1	·	99

Continuation:
entry	SMILES	HCMV NEC inh	GIV-Gai inh
61	COCCCNC(=O)c1ccc(Sc2ccc(NS(=O)(=O)c3cc(C)ccc3C)cc2)nc1	·	99
62	COC(=O)C(C)N1C(=O)S/C(=C/c2ccc(N3CCCCCC3)o2)C1=O (stereo unspecified)	-47	-15*
63	O=C(CN1C(=O)S/C(=C/c2ccc(N3CCCCCC3)o2)C1=O)N1CCCCCC1	-25	·
64	COc1ccc(N2C(=O)CC(c3ccc(OC)c(OC)c3)CC2=O)cc1	-19	99
65	O=C(O)CN1C(=O)/C(=C\c2cc([N+](=O)[O-])cc(Br)c2O)SC1=S	-78	-59*
66	O=C1/C(=C/c2cc([N+](=O)[O-])cc(Br)c2O)SC(=S)N1c1ccc([N+](=O)[O-])cc1	-19	106
67	CCc1ccc(NC(=O)N2CCCN(S(=O)(=O)c3ccc4c(ccn4CC)c3)CC2)cc1	-1	102
68	CCOC(=O)C1=C(C)OC(N)=C(C#N)C1c1ccc(O)cc1 (stereo unspecified)	-47	101
69	CC(=O)OCc1c(C)ccc(C2C(C#N)=C(N)OC(N)=C2C#N)c1C	·	-1.1*
